These results are taken from ChEMBL document CHEMBL1135592, “Structural determinants of A(3) adenosine receptor activation: nucleoside ligands at the agonist/antagonist boundary” (J Med Chem, 2002).

Chains of the proteins cited; added tags and fusions are not shown.
UniProt P0DMS8, whole entry: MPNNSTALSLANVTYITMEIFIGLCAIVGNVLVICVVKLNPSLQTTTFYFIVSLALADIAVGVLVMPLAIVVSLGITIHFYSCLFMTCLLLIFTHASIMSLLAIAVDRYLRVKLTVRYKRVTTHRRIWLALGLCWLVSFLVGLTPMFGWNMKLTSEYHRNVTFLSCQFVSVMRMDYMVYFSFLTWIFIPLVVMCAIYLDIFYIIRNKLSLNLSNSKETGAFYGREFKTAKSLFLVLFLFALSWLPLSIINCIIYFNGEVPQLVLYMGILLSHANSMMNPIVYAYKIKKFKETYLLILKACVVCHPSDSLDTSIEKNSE

The structures appear in SMILES notation.

A word on the EC50: it is the midpoint of the concentration-response curve. As usually defined, the Ki is a measure of affinity in units of concentration, obtained from inhibition or displacement. A lower Ki goes with a stronger hold on the target.

Assay [1] concerns the target T1, Adenosine receptor A3 (Homo sapiens, UniProt P0DMS8). The assay is described as follows: Effect on forskolin-stimulated cyclic AMP production in intact chinese hamster ovary (CHO) cell expressing the human Adenosine A3 receptor. The format is functional.
In assay [2] the target is T1, Adenosine receptor A3. The assay is described as follows: Affinity for human Adenosine A3 receptor expressed in CHO cell. The format is cell-based.

Turning to `C[C@H](Cc1ccccc1)Nc1ncnc2c1ncn2[C@@H]1O[C@H](CO)[C@@H](O)[C@H]1O` [(R)-PIA], the EC50 on Adenosine receptor A3 [1] amounted to 0.027 µM. The affinity at Adenosine receptor A3 [2], expressed as Ki, was 0.0087 µM.
The corresponding values for `C[C@@H](Cc1ccccc1)Nc1ncnc2c1ncn2[C@@H]1O[C@H](CO)[C@@H](O)[C@H]1O` [(S)-PIA] are 0.21 µM and 0.068 µM.
